Assay results reported in patent US9434724B2, “Quinuclidines for modulating alpha 7 activity” (priority 2014, dated 2016).

Amino acid sequences for entries named in this document (tags omitted). Residues count along the entry.
UniProt Q05941, 23-502 limits assumed: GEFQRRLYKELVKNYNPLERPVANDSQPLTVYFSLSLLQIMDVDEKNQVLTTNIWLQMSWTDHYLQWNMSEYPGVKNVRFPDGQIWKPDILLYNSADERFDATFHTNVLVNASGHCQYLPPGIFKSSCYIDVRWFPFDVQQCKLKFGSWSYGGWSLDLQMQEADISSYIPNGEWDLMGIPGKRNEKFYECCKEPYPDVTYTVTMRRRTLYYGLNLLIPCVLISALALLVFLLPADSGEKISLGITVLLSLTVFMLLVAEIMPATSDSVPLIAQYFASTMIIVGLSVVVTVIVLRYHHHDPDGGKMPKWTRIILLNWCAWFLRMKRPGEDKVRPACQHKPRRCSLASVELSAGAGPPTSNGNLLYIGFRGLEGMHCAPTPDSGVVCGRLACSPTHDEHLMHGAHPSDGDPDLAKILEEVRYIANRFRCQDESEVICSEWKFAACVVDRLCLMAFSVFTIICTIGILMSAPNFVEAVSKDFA

Target: rat brain nicotinic receptor (α7 NAChR) (Rattus norvegicus (Rat), UniProt Q05941)
Type: binding

N#Cc1ccc2c(C(=O)OCC34CCN(CC3)CC4)c[nH]c2c1 [Compound 28, quinuclidin-4-ylmethyl 6-cyano-1H-indole-3-carboxylate]
Ki: 796 nM

O=C(OCC12CCN(CC1)CC2)c1c[nH]c2cc(Cl)cc(Br)c12 [Compound 42, quinuclidin-4-ylmethyl 4-bromo-6-chloro-1H-indole-3-carboxylate]
IC50: 1100 nM
